{
  "source": "patent US11007355B2",
  "about": "“Drug delivery devices and methods for treatment of bladder cancer with oxaliplatin” (TARIS Biomedical LLC, priority 2012, dated 2021)",
  "key": {"male Sprague Dawley rats": {"tested_on": "male Sprague Dawley rats", "conditions": "72-hour bladder perfusion, 0.308 mg/mL; animal 49", "description": "(§1) Blood, urine, and tissue samples were collected and analyzed for drug content.\n(§2) The perfusate formulation concentration was 0.308 mg/mL. Dose (mg/kg) was calculated as (Dose administered (g) x formulation concentration (mg/mL))/Animal Wt. (kg). The drug solutions were dosed over a 72-hour period into the non-fasted animal's bladder by intra-urinary bladder cannula using an infusion pump.\n(§3) Whole blood samples were taken via tailnick or jugular vein cannula at the following time points following the start of perfusion: 0, 4, 8, 24, and 48 hours. Urine was collected pre-dose and for 0-24, 24-48, and 48-72-hour periods post dose.\n(§4) Following the 72-hour infusion period the animals were sacrificed, terminal blood samples were taken via the abdominal aorta, and bladder, prostate, ureter, and kidney tissues were collected, weighed, and visually inspected for evidence of tolerability/reaction from exposure to the drug."}, "[1]": {"experiment": "Oxaliplatin tissue permeability: platinum in blood, urine and tissues after 72-hour bladder perfusion (Example 2)", "conditions": "terminal concentrations, FIG. 11", "description": "as §1, §2, §3, §4"}},
  "data": [
    {"compound": "O=C1[O][Pt]2([NH][C@@H]3CCCC[C@H]3[NH]2)[O]C1=O", "note": "[oxaliplatin]", "values": [
      {"measurement": "Observations at necropsy: remaining urothelium", "setting": "male Sprague Dawley rats", "value": "otherwise normal"},
      {"measurement": "bladder:urine ratio", "setting": "[1]", "value": 10, "unit": "%"}
    ]}
  ]
}
